Earlier results on one substance are cited in publication PMC2901243 (Nuclear medicine and biology, 2010).

Sequences of proteins named here, by UniProt entry; tags and fusion partners are left off. A change or cut given only in a name is not applied to a line headed by its entry.
UniProt P30680: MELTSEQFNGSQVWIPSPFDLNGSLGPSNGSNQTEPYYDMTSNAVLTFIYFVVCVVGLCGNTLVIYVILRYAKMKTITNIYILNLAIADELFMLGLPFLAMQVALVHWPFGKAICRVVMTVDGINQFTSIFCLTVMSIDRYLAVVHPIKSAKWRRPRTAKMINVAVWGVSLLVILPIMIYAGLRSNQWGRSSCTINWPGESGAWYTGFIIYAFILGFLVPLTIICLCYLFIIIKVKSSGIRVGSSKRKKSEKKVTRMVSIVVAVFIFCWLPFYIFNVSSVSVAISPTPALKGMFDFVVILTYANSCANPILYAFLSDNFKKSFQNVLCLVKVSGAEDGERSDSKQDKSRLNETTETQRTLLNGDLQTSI

This series addresses SSTR2 (Rattus norvegicus, UniProt P30680). The following applies: read-out: IC50 of Re-cyclized; Re-cyclized TATE; ref [14]; cited from earlier work.

For “DPhe-Cys-Tyr-DTrp-Lys-Thr-Cys-Thr(OH) [Re-TATE]”, the half-maximal inhibitory concentration (IC50) was 29 nM.
